Experimental data published in patent publication US12410231B2, “Natural killer cell products and methods” (Board of Regents of The University of Texas System, priority 2018, dated 2025).

Columns and labels:
[1] = tested on: SKOV3; test: ADCC / co-culture with SKOV3 (IncuCyte); format: cell-based
[2] = tested on: OE19; test: ADCC / co-culture with OE19 (IncuCyte); format: cell-based; conditions: 0E19
Procedure: FIGS. 19A-19D Enhancing NK cell anti-tumor efficacy by antibody-dependent cellular cytotoxicity. […] SKOV3 (RFP, red) proliferation were measured by live-cell imaging using an IncuCyte imager. After 72 h, SKOV3 killing was calculated relative to tumor cells alone. […] Two-way ANOVA was used to do comparison. P<0.0001. After 72 h of co-culture SKOV3RFP proliferation was measured by IncuCyte (FIG. 19C). After 71 h, co-culture with different transduced NK cells OE19GFP proliferation was measured by IncuCyte. Two-way ANOVA were used do comparison. P<0.01. (FIG. 19D)
Cytotoxicity was measured by luciferase activity assay 24 hrs later following the manufacturer's protocols. The findings are reported as specific lysis relative to THP-1 or other tumor cell targets. Additional co-culture assays were analyzed by flow cytometry for the frequency of tumor cells GFP+ populations. In some long term assays, gene modified NKs were co-cultured with tumor cell targets either labeled with eGFP or RFP for 7 days in the presence of 200 U/ml IL-2. Tumor cells growths were monitored by real-time fluorescent microscopy (IncuCyte; Essen Biosciences).
Antibody-dependent cell-mediated cytotoxicity (ADCC) is one of the mechanisms by which NK cells are involved in tumor cells killing. […]

“Herceptin: a monoclonal antibody; tested against HER2+ tumor cells” was tested, and the “effect of Herceptin on iRC9 NK cell-mediated tumor target killing” value ([1]; 300 ng/ml Herceptin) was “improved NK cell-mediated tumor target killing”, the “synergy of Herceptin Rimiducid combination treatments” value ([1]; 300 ng/ml Herceptin and 1 nM rimiducid) was “little synergistic effects” and the “effect of Herceptin on iMC.HER2CAR.ζ cytotoxicity” value ([1]; SKOV3) was “did not affect”. For the same substance, the “effect of Herceptin on iMC.HER2CAR.ζ cytotoxicity” value [2] was “did not affect”.
